Source: patent US20250157661

Tested on: Indicator molecule containing the cleavable sequence GPQGIFGQ with a terminal biotin group connected via a polyethylene glycol spacer/linker (intact, Examples 1-6)

## MMP13 (Enzo)
  Reader value (lateral flow, CF1522-gold) with MMP at 0.5 ug/ml: 6350 reader units
